12-LOX inh = blocks human arachidonate 12S-lipoxygenase | purified 12hLO, xylenol orange hydroperoxide absorbance | Potency, µM (doses to about 108 µM), actives largely listed as inhibitors | actives 1.1% (n = 580,000) | AID 1671190
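Hydroperoxide product was detected by ferrous iron/xylenol orange as the 573 to 405 nm absorbance ratio. Arachidonic acid at 40 uM (final) was turned over for 30 min at room temperature by 150 nM human 12hLO, pH 7.0 Hepes buffer, after 15 min compound preincubation.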
miR-21 reporter = miR-21 reporter, rising signal. HeLa miR-21 FLuc reporter, luciferase, 48 h. Potency, µM (titrated, usually from 38.3 µM). 340,000 tested, under 10 active. AID 2288; active = well fitted rising curve with a large enough effect; inconclusive = small, poorly fitted or top-dose-only effect; inactive = no such curve, though single readings can be large or run the other way;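 also: miR-21 action dims this reporter so a rising signal means less miR-21 action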
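Using DMEM plus 10% FBS, HeLa miR-21-FLuc cells are incubated with test compounds (final up to about 40uM) for 48 hours; firefly luciferase signal is then imaged following reagent-mediated lysis.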
PTHR1 ag = agonists of human PTHR1 parathyroid hormone receptor | HEK293 GP2 PTHR1 cells, GloSensor cAMP luminescence, 1 h | Potency, µM (highest dose often 115 µM), most hits filed as activators | actives 0.075% (n = 410,000) | AID 743266; note: nearly all actives have a fitted effect of over 55% in size
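HEK-293-derived GP2 cells expressing PTHR1 and a GloSensor cAMP reporter, 3,000/well, plated overnight, given luciferin plus IBMX (each 0.5 mM as added) for 1 h at 37 °C, then compound for 1 h at 37 °C. Luminescence was read after 15 min at room temperature.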
Giardia kill = kills Giardia lamblia. Giardia lamblia trophozoite viability. activity change, % at 7.66 µM, hits read low. actives 0.15% (n = 340,000); in the data active = activity change below about -80%; inconclusive = between about -30% and that limit;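 note: parasites exposed to compound for two days anaerobically before the ATP read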
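Anaerobic 48 hrs incubation at 37 deg C of 100 trophozoites/well with test compounds; ATPLite 1-Step luminescence, 15-30 min RT, reports cellular ATP as viability.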
ERG Ets-DNA blk = ERG Ets/DNA interaction inhibition; P11308; fluorescence polarization, His-ERG Ets domain / labelled DNA; Potency, µM (titrated, usually from 76.9 µM), hits mostly inhibitors; actives 0.028% (n = 370,000); AID 624246; active = well fitted inhibition curve with a large enough effect in the polarisation, with a control signal flat; inconclusive = small, poorly fitted or top-dose-only effect, or effect the other way, or a change in a side signal; inactive = no such curve, though single readings can be large or run the other way; the % refers to the polarisation;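 note: polarization taken with two DNA probes labelled with fluorescein and Texas red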
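His-tagged ERG Ets domain (1 uM in the protein solution; 300mM KCl, 50mM Tris-HCl, 1mM EDTA, 1mM DTT, pH 7.5) received compound, then a probe mix of 5 nM fluorescein-DNA and 100nM Texas-615-DNA. Fluorescence polarization was read for both dyes.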
PINK1 modulator = PINK1 expression modulation; Potency, µM (titrated, usually from 76.6 µM), usual class: activators; AID 624263; PINK1 immunofluorescence, high-content cytometry, 24 h; actives 0.2% (n = 410,000); active = well fitted activation curve with a large enough effect; inconclusive = small, poorly fitted or top-dose-only effect; cell line not stated here; note: nearly all actives have a fitted effect of over 65% in size
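Fluorescence from anti-PINK1 antibody, together with nuclear and cell stains, was scanned on a laser-scanning cytometer. Before staining, stable-line cells were incubated 24 hours with compounds at 5 concentrations; primary antibody 12 h at 10 degrees C.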
Numbers stand for hits; . = inactive; ? = inconclusive; / = no result. This is a sample that favours compounds with a hit; in the whole collection about 1.3% have one here. Unless noted, calls come from the whole dose curve; as a rule, active = well fitted curve in the direction sought with a large enough effect; inconclusive = small, poorly fitted or top-dose-only effect, or another doubt; inactive = no such curve, though single readings can be large; an effect the other way counts as inactive or inconclusive.

SMILES	12-LOX inh	miR-21 reporter	PTHR1 ag	Giardia kill	ERG Ets-DNA blk	PINK1 modulator
Cc1cccc(NC2=C(NC(=O)c3ccccc3)C(=O)c3ccccc3C2=O)c1	14.1µM	.	.	.	.	.
O=C(NC1=C(Nc2ccc(Cl)cc2)C(=O)c2ccccc2C1=O)c1ccccc1	.	.	.	.	.	.
Cc1cccc(CN2CCN(C(c3ccccc3)c3ccc(Cl)cc3)CC2)c1 (stereo not given)	?	.	.	.	.	35.5µM
O=C(CSc1ncc2c(n1)-c1ccc(Cl)cc1N(Cc1ccccc1)S2(=O)=O)Nc1ccccc1C(F)(F)F	.	.	.	/	.	.
Clc1nssc1=Nc1nncs1	4.47µM	/	.	.	.	.
Clc1nssc1=Nc1ccc(Br)cc1	3.98µM	.	.	.	.	?
CCc1ccc2c(c1)cc(CN(C(=S)Nc1cccc(C)c1)C1CC1)c1nnnn12	.	.	.	.	/	?
c1csc(-c2nnc(NC3CCCCC3)c3ccccc23)c1	.	.	.	.	.	31.6µM
COC1=C(NCc2ccc3c(c2)OCO3)C(=O)C(OC)=C(NCc2ccc3c(c2)OCO3)C1=O	8.91µM	/	.	.	/	.
O=C(COC(=O)C1CC2C=CC1C2)Nc1c(Br)cc([N+](=O)[O-])cc1Br (stereo not given)	22.4µM	/	.	.	.	.
Cc1nc(NC(C)c2ccccc2)c2c3c(sc2n1)CCC3 (stereo not given)	/	.	.	.	.	.
CC(C)c1ccccc1Cc1cc(C(=O)Nc2ccc(S(=O)(=O)c3ccccc3C(C)(C)C)cc2)c(O)c(O)c1O	9.68µM	/	/	/	/	/
C=CCOc1ccc(/C=C(\C#N)C(=O)Nc2ccccn2)cc1OC	10µM	.	.	.	.	.
COc1ccc(/C=C(/C#N)C(=O)Nc2cccc3ncccc23)cc1OC	15.8µM	/	/	/	/	/
CCOc1ccc(/C=C(/C#N)C(=O)Nc2cccc3ncccc23)cc1	.	/	/	/	/	/
CC(C)c1ccc(/C=C(/C#N)C(=O)Nc2cccc3ncccc23)cc1	15.8µM	/	/	/	/	/
C=C1C=C(C(F)F)n2ncc(C(=O)NCc3ccccc3)c2N1	/	/	/	/	/	.
C/C=C\C=C/C(=O)Nc1cccc(C2=NOC3(C2)C[C@H](C(N)=O)N(C(=O)CC)C3)c1 (stereo not given in full)	.	.	.	.	.	?
C/C=C\C=C\C(=O)Nc1cccc(C2=NOC3(C2)C[C@@H](C(N)=O)N(C(=O)C(c2ccccc2)c2ccccc2)C3)c1 (stereo not given in full)	8.91µM	.	.	.	.	.
CCC1Oc2ccc(NS(=O)(=O)c3ccc(Cl)cc3)cc2CN(Cc2ccc(F)cc2)C1=O (stereo not given)	.	/	/	/	/	/
CCC1Oc2ccc(NS(=O)(=O)c3ccccc3)cc2CN(Cc2ccc(F)cc2)C1=O (stereo not given)	14.1µM	/	/	/	/	/
O=C(O)c1cc(O)c2c(c1)[C@@H]([C@H]1c3cc(C(=O)O)cc(O)c3C(=O)c3c(O[C@@H]4O[C@H](CO)[C@@H](O)[C@H](O)[C@H]4O)cccc31)c1cccc(OC3O[C@H](CO)[C@@H](O)[C@H](O)[C@H]3O)c1C2=O (stereo not given in full)	50.1µM	/	.	.	.	.
CCN(CC)Cc1cc(C(C)=O)ccc1OCC(C)C	?	.	.	.	.	.
Nc1nc(N)c(N=Nc2ccc(S(N)(=O)=O)cc2)c(=O)[nH]1	39.8µM	.	.	.	.	.
Oc1[nH]c2ccccc2c1N=Nc1nncc2ccccc12	.	.	.	.	.	.
SMILES	12-LOX inh	miR-21 reporter	PTHR1 ag	Giardia kill	ERG Ets-DNA blk	PINK1 modulator
O=c1[nH]c2ccc(NCc3ccc(-c4ccc(Br)cc4)o3)cc2[nH]1	10µM	.	.	/	.	.
CNCc1ccc(-c2ccc(Br)cc2)o1	28.2µM	/	/	/	/	/
Cc1oc2c(c1C(=O)NC1CCN(C)CC1)CN(Cc1ccc(F)cc1)CC2	.	/	/	/	/	/
Cc1oc2c(c1C(=O)N1CCN(C3CCCC3)CC1)CN(Cc1cccc(F)c1)CC2	8.91µM	/	/	/	/	/
Cc1oc2c(c1C(=O)NC1CCCC1)CN(Cc1ccc(F)cc1)CC2	12.6µM	/	/	/	/	/
Cc1ccc(CN2CCc3oc(C)c(C(=O)NC4CCCC4)c3C2)cc1	25.1µM	/	/	/	/	/
Cc1oc2c(c1C(=O)NCc1cccnc1)CN(Cc1ccc(F)cc1)CC2	.	/	/	/	/	/
COc1ccc(-c2noc([C@@H]3CCCN3C(=O)c3ccc(F)cc3)n2)cc1OC	.	/	/	/	/	/
COCCNC(=O)c1noc(-c2ccccc2F)n1	.	/	/	/	/	/
O=[N+]([O-])/C(Cl)=C(/NCCO)C(Cl)=C(Cl)Cl	.	/	.	-100.1	.	.
CC(C)c1cc(C(=O)NNC(=S)NCc2ccco2)c(O)c(C(C)C)c1	35.5µM	.	.	.	.	?
O=C(OCc1cn([C@H]2CN(C(=O)c3cccs3)[C@@H](c3ccc(Cl)cc3)C[C@@H]2O)nn1)c1ccccc1	.	/	.	/	/	.

Compound activity deposited in PubChem BioAssay by National Center for Advancing Translational Sciences (NCATS).
